Tests used:
[1] = species: Mus musculus; test: Tested for effective dose required to produce antinociceptive activity in mice by tail flick method
[2] = species: Mus musculus; test: Tested for effective dose required to produce antinociceptive activity in mice by HCl writhing method
[3] = species: Mus musculus; test: Tested for effective dose required to produce antinociceptive activity in mice by tail pinch method

SMILES: CN(C)[C@@H]1CCCC[C@H]1N(C)C(=O)Cc1ccc(Cl)c(Cl)c1
- ED50 [1]: 2.8 mg/kg
- ED50 [2]: 3.1 mg/kg
- ED50 [3]: 7 mg/kg

— ChEMBL document CHEMBL1121943, “Benzeneacetamide amines: structurally novel non-m mu opioids” (1982)
